Target: T1, 15-hydroxyprostaglandin dehydrogenase [NAD(+)] (Homo sapiens, UniProt P15428)
T1 sequence (P15428 whole entry): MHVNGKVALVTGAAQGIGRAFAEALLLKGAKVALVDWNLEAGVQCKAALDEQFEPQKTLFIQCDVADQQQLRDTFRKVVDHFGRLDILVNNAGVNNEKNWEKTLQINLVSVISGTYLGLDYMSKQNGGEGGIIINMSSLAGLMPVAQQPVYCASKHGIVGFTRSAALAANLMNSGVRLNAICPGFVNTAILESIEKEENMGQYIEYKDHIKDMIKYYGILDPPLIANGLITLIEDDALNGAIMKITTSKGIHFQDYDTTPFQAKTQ
Test: Inhibition of human 15PGDH expressed in Escherichia coli BL-21 by fluorescence spectrophotometry

## O=C1NC(=O)/C(=C/c2ccc(OCc3ccccn3)cc2)S1
  IC50: 2580 nM

— ChEMBL document CHEMBL1156934, “Synthesis and SAR of thiazolidinedione derivatives as 15-PGDH inhibitors” (Bioorg Med Chem, 2010)
